Target: CCR5 (Homo sapiens, UniProt P51681)
Test: CCR5-Mediated CCF Assay
Settings: Hela-R5 cells (gp160) co-cultured 24 hrs with CEM-NKr-CCR5-Luc cells, luciferase readout
Protocol: CCF assay was performed as described before (C. Ji, J. Zhang, N. Cammack and S. Sankuratri 2006 J. Biomol. Screen. in press). Hela-R5 cells (express gp160 from R5-tropic virus and HIV-1 T at) were plated in 384 well white culture plates (BD Bioscience, Palo Alto, Calif.) at 7.5×10^3 cells per well in phenol red-free Dulbecco's Modified Eagle Medium (DMEM) supplemented with 10% FBS, 1× Pen-Strep, 300 μg/ml G418, 100 μg/ml hygromycin, and 1 μg/ml doxycycline (Dox) (BD Bioscience, Palo Alto, Calif.), using Multimek (Beckman, Fullerton, Calif.) and incubated at 37° C. overnight to induce the expression of gp160. Ten μl diluted compounds in medium containing 5% DMSO were added to the cells, followed by the addition of CEM-NKr-CCR5-Luc (obtained from NIH AIDS Research & Reference Reagents Program) that expresses CD4 and CCR5 and carries a HIV-2 long terminal repeat (LTR)-driven luciferase reporter gene at 1.5×10^4 cells/15 μl/well and incubated for 24 hrs. At the end of co-culture, 15 μl of Steady-Glo luciferase substrate was added into each well, and the cultures were sealed and gently shaken for 45 min. The luciferase activity were measured for 10 sec per well as luminescence by using 16-channel TopCount NXT (PerkinElmer, Shelton, Conn.) with 10 min dark adaptation and the readout is count per second (CPS). […]

By UniProt entry, the sequences of proteins in these tests, tags left out.
UniProt P51681, whole entry: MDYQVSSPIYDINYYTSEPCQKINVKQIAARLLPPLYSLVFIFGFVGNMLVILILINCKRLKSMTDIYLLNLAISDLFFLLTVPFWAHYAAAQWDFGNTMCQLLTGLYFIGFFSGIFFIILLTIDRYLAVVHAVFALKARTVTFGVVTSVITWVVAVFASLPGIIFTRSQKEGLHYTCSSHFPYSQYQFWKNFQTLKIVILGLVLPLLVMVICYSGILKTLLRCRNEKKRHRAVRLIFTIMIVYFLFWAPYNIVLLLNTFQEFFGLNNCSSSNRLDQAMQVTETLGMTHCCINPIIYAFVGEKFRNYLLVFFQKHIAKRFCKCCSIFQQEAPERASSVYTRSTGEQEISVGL

CCOC(=O)CN(C)c1nc(C)c(C(=O)N2C[C@H]3CN(CCCN(C(=O)C4CCC(F)(F)CC4)c4ccc(C)c(Cl)c4)C[C@H]3C2)c(C)n1 (relative stereo)
IC50: 0.4 nM

Source: US20070191335A1, “Heterocylic antiviral compounds” (priority 2006, published 2007)
